Laboratory results reported in patent publication US20240150335A1, “FUSED RING DERIVATIVES CONTAINING 1,4-OXAZEPANE” (MEDSHINE DISCOVERY INC., priority 2021, published 2024).

By UniProt entry, the sequences of proteins in these tests, tags left out. Residues count along the entry.
UniProt P53634, 395-463: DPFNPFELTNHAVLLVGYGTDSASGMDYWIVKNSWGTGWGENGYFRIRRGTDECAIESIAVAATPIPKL
UniProt P53634, 25-134: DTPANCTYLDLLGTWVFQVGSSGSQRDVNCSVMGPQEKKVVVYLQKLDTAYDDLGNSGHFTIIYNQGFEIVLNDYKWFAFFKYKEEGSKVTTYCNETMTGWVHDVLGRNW
UniProt P53634, 231-394: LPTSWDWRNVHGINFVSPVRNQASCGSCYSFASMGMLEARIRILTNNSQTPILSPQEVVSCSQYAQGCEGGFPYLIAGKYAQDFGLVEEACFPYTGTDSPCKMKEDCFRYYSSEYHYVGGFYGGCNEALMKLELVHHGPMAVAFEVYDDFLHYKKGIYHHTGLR

Legend:
[1] = molecular target: Recombinant human cathepsin C/DPP1; assay: Inhibition effect test of DPP1 enzyme activity; format: biochemical; settings: recombinant human cathepsin C/DPP1, Gly-Arg-AMC substrate 12.5 μM, 25° C. 60 minutes; read-out: IC50, inhibitory activity on DPP1 enzyme
Procedure: Experimental Example 1: Inhibition Effect Test of DPP1 Enzyme Activity
Recombinant human cathepsin C/DPP1 was purchased from R&D Systems;
Recombinant human cathepsin L (rhCathepsin L) was purchased from R&D Systems;
Gly-Arg-AMC (hydrochloride) was purchased from CAYMAN CHEMICAL COMPANY.
1× activation buffer: 5 mM DTT 0.01% (V/V) Triton X-100 (preparation for current use);
1× assay buffer: 50 mM NaCl 5 mM DTT 0.01% (V/V) Triton X-100 (preparation for current use);
1× activation buffer was used to dilute recombinant human cathepsin C/DPP1 enzyme and recombinant human cathepsin L (rhCathepsin L) enzyme to concentrations of 2 ng/μL and 0.4 ng/μL, respectively; equal volume of two working solutions of enzyme was taken, mixed well and incubated at 25° C. for 60 minutes;
the compounds to be tested were 5-fold diluted with a multi-channel pipette to the 8th concentration, i.e., diluted from 1 mM to 12.8 nM. Then 1× experimental buffer was used to dilute each compound to be tested by gradient into a 4% DMSO working solution. The working solution was added to corresponding wells for 5 μL/well, and duplicate experiment was set. The mixture was centrifuged at 1000 rpm for 1 minute; […]
after incubation, fluorescence detection was performed using a multi-label analyzer with an excitation wavelength of 360 nm and an emission wavelength of 460 nm. […]

DPP1 of U937 cells = DPP1 of U937 cells (Homo sapiens (Human), UniProt P53634); assay: Activity test of inhibiting DPP1 in U937 cells; format: cell-based; settings: Gly-Phe-AFC probe, read-out: IC50, inhibitory activity on DPP1 of U937 cells
Procedure: Experimental Example 2: Activity Test of Inhibiting DPP1 in U937 Cells
Experimental Materials: • 1) Experimental reagents and consumables […]
3) the plate was read, and the data were analyzed: • (1) plate reading: after the cell incubation was completed, the cell plate was taken out, and the plate was read on Victor Nivo. […]

`Cn1c(=O)oc2ccc(-c3ccc(C[C@@H](C#N)NC(=O)[C@@H]4CNCCCO4)c(F)c3)cc21` [Compound 6] was tested. Which IC50 [1] did it give?
The IC50 was 0.84 nM.

And the IC50 (DPP1 of U937 cells)?
The IC50 was 0.64 nM.
